Measured values from paper doi:10.1101/2021.12.20.473401.

Key:
[1] = target: SARS-CoV-2 Wuhan-Hu-1 spike glycoprotein (S) (SARS-CoV-2 Wuhan-Hu-1); test: SPR
[2] = target: SARS-CoV-2 Wuhan-Hu-1 spike glycoprotein (S) (SARS-CoV-2 Wuhan-Hu-1); test: FACS

| Substance | Kd [1] [nM] | EC50 [2] [nM] |
| --- | --- | --- |
| VHH-72 | 86.2 | – |
| VHH-72-Fc | – | 0.2 |
